Measured values: patent US9216997B2, “Tri-heterocyclic derivatives, preparation process and uses thereof” (SHANGHAI DE NOVO PHARMATECH CO LTD., priority 2011, dated 2015)

Amino acid sequences for entries named in this document (tags omitted). Residues count along the entry.
UniProt P36888, 27-993 limits assumed: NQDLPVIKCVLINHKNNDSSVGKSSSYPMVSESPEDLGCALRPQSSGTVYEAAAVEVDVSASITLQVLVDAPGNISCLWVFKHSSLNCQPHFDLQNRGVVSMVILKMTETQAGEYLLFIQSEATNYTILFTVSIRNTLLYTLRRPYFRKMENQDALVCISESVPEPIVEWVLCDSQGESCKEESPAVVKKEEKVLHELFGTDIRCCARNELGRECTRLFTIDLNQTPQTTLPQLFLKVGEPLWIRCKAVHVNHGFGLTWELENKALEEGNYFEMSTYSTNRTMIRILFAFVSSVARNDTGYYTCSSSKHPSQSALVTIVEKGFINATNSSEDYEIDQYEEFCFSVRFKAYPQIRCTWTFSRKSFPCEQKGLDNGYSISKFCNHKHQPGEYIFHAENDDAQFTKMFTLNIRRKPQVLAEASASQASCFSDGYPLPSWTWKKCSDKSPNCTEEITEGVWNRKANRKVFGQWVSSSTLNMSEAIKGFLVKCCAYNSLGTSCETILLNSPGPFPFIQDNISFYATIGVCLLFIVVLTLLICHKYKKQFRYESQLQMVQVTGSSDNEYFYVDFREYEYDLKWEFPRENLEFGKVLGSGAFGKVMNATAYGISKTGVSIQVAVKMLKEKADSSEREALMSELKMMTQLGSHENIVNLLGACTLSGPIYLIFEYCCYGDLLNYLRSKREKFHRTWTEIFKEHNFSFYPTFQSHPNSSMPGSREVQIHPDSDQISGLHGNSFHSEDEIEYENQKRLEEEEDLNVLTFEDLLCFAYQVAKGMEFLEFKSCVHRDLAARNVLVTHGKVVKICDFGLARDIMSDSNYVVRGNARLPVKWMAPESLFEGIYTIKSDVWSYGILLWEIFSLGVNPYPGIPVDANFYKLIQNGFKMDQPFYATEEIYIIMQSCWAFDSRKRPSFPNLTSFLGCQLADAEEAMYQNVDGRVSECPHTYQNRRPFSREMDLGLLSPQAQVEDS

Tests used:
MV4-11 cell = MV4-11 cell proliferation assay (CellTiter-Glo); settings: read-out: IC50 inhibiting MV4-11 cell proliferation, MV4-11 cells, 72 hours
FLT3 = FLT3 (Homo sapiens (Human), UniProt P36888); assay: FLT3 kinase inhibition assay (Caliper mobility shift assay); format: biochemical; settings: read-out: IC50 inhibiting the FLT3 kinase; 0.9 nM purified FLT3, 97 uM ATP, 28° C., 60 min

Row | IC50 (MV4-11 cell) | IC50 (FLT3) | SMILES
1 | 90 pM | – | CCNC1(COc2ccc3c(n2)sc2nc(-c4ccc(NC(=O)Nc5cc(C(C)(C)C)on5)cc4)cn23)CC1
2 | 400 pM | 33000 pM | CN1CCN(CCOc2ccc3c(n2)sc2nc(-c4ccc(NC(=O)Nc5cc(C(C)(C)C)on5)cc4)cn23)CC1
